Molecular target: human recombinant dopamine D4.2 receptor subtype (Homo sapiens, UniProt P21917, DEL265-296)
Assay: Receptor binding assay, [3H]spiperone competition, D4.2
Settings: for D2/D4 Ratio: ratio of D2 Ki to D4 Ki
Description: The D2 receptor cDNA was subcloned into an expression vector, pRc/CMV. The plasmids were transfected by electroporation into CHO K1 cells. A single stable transfectant, resistant to the antibiotic G418, was isolated and selected for use in the binding studies.
Cells were grown until confluent, after which growth medium was removed and replaced with 0.02% ethylene diamine tetracetate (EDTA) in a phosphate-buffered saline solution (Sigma Chemical Co., St. Louis, Missouri) and scraped from the flasks. The cells were centrifuged at about 1000 × g for 10 minutes at […] and then resuspended in TEM buffer (25 mM Tris-HCl, pH 7.4, 5 mM EDTA, and 6 mM MgCl2) for D2 or the D4.2 buffer (50 mM Tris-HCl, pH 7.4, 5 mM EDTA, 1.5 mM CaCl2, 5 mM KCl, and 120 mM NaCl) and homogenized. The membranes were pelleted by centrifugation at 20,000 × g at […] for 20 minutes. Then the pellets were resuspended in appropriate buffer at 1 mL/flask and stored at -70°C until used in the receptor binding assay.
After 60 minutes incubation at 25°C, the incubations were terminated by rapid filtration through Whatmann GF/B glass fibre filters (soaked for 1 hour in 0.5% polyethylenimine) on a -cell harvester, with three washes of 1 mL ice-cold buffer. Individual filter disks containing the bound ligand were placed in counting vials with 4 mL of scintillation fluid (Ready Gel, Beckman Instrument Inc., Fullerton, California) and then counted in a Beckman LS-6800 liquid scintillation counter at an efficiency of 45%. Nonspecific binding was defined in presence of […] of haloperidol.
Saturation and competition binding data were analyzed using an iterative nonlinear least-square curve-fitting Ligand program. […] Experimental compounds were made up as stock solutions in dimethyl sulfoxide (DMSO). […] Each observation was carried out in triplicate. To allow these calculations, Ki values were measured for the interaction of various ligands with the receptor. […]

By UniProt entry, the sequences of proteins in these tests, tags left out. Chains listed by the source or under a name are the forms on record and can include a tag or linker.
UniProt P21917, with tags, fused parts or gaps DEL265-296: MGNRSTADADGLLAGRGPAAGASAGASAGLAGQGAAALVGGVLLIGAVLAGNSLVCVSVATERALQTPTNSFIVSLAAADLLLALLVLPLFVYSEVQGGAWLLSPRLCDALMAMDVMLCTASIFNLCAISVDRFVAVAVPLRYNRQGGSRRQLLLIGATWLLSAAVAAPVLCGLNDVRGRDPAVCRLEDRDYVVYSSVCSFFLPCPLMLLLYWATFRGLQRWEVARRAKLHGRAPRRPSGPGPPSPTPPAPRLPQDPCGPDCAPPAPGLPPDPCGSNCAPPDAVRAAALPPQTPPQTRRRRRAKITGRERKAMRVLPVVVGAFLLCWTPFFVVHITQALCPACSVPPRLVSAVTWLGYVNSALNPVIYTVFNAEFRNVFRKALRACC

Ki [nM] | D2/D4 Ratio | Structure (SMILES)
10.7 |  | Cc1ccc(N2CCN(Cc3ccc4c(c3)OCC(=O)N4)CC2)cc1 [Example 12, 7-(4-p-Tolyl-piperazin-1-ylmethyl)-4H-benzo[1,4]oxazin-3-one]
3.87 | 180.4 | COc1ccc(C2CCN(Cc3ccc4c(c3)NC(=O)CO4)CC2)cc1 [Example 37, 6-[4-(4-Methoxy-phenyl) -piperidin-1-ylmethyl]-4H-benzo[1,4]oxazin-3-one]
6.94 | 49.9 | Cc1ccc(N2CCN(Cc3ccc4c(c3)OCC(=O)N4)CC2)cc1C [Example 14, 7-[4-(3,4-dimethyl-phenyl)-piperazin-1-ylmethyl]-4H-benzo[1,4]oxazine-3-one]
5.18 |  | Cc1ccc(N2CCN(Cc3ccc4c(c3)NC(=O)CO4)CC2)cc1C [Example 5, 6-[4-(3,4-Dimethyl-phenyl)-piperazin-1-ylmethyl]-4H-benzo[1,4]oxazin-3-one]

Source: patent EP0906294B1 (WARNER-LAMBERT COMPANY, priority 1996, dated 1997)
